Source: PubChem BioAssay AID690 (Sanford-Burnham Center for Chemical Genomics, 2007)

The chains behind the UniProt entries cited, without tags or fusion partners. Where a name states a change or a piece, a line headed by the entry shows the natural chain unless it says otherwise.
UniProt P05187: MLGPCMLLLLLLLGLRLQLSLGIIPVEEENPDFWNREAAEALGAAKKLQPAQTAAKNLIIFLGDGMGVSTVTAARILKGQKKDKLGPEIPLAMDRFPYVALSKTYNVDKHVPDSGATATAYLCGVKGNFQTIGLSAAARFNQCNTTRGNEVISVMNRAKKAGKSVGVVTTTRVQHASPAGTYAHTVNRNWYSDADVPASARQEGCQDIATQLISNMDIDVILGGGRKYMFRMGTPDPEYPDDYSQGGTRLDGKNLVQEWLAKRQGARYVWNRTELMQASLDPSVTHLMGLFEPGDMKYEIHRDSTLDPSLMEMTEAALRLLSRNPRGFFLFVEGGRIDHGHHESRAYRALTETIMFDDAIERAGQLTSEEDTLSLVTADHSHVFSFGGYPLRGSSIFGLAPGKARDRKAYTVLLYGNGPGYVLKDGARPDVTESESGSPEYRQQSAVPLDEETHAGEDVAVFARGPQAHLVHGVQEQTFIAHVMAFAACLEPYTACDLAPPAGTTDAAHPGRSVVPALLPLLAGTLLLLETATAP

Biological target: Alkaline phosphatase, placental type (Homo sapiens) (UniProt P05187)
Test: PLAP enzyme inhibitors, biochemical, luminescence, HTS (AID 690)
Conditions: purified PLAP, luminescent substrate

IC50: 1.83 µM
Structure (SMILES): COc1ccc2c(c1OC)C(=O)OC2CC(=O)c1ccc(O)c(O)c1 (stereo unspecified)
